From patent US10602680B2, “Method of internal seed disinfection by combining seed priming with vacuum infiltration” (priority 2014, dated 2020)

Tested on: triploid watermelon seeds
Test: Phytotoxicity screening by vacuum infiltration followed by matrix priming
Conditions: further screening using the same format; concentrations not given
Method: Step 110 involves choosing which species of seed will be sought to be disinfected. […] Thus, in step 130, a phytotoxicty screening is carried out on the chosen seeds using the chosen treatment. […] For example, the inventors screened the antibiotic Oxytetracycline using the method of adding chemicals to the water used in matrix priming (Eastin, J. A., 2000, U.S. Pat. No. 6,076,301) and the method of the present invention. Water containing 500 ppm of Oxytetracycline was used to prime triploid watermelon seeds using matrix priming. Further, the same seed was treated with vacuum infiltration using 500 ppm Oxytetracycline solutions for 6 hours, which was followed by a matrix priming using water. For a control, seed of the same lot was treated using vacuum infiltration with water, followed by matrix priming using water. Also, untreated seeds were preserved as an additional control.

Q: Which phytotoxicity does the source give for Piperacillin/tazobactam here?
A: The phytotoxicity was “no phytotoxic effects”.
